Protein sequences, listed by entry. Tags and fused reporters are not part of them.
UniProt Q9NYV8, whole entry: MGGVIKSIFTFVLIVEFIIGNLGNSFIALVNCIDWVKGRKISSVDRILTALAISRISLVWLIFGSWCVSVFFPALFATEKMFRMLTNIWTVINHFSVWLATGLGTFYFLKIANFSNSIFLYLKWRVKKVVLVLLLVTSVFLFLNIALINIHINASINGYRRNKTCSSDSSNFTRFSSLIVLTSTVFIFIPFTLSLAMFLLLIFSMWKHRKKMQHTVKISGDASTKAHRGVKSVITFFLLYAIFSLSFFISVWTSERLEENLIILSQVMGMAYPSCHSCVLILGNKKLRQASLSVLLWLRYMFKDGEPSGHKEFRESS

According to patent US8158372B2, “Agonists of a bitter taste receptor and uses thereof” (Deutsches Institut für Ernährungsforschung Potsdam-Rehbrücke, priority 2004, dated 2012):

Molecular target: hTAS2R14 (Homo sapiens, UniProt Q9NYV8)
Assay: hTAS2R14 ligand screening, FLIPR calcium assay in transfected HEK-293T Gα16gust44 cells
Conditions: conc 524 μM

With `O=[N+]([O-])c1cc([N+](=O)[O-])c(O)c([N+](=O)[O-])c1` the response was “n.r”.

Some compounds may have been tested in ways that are not shown here.
